{"source": "patent US20140187505A1", "about": "“Cardiac Glycosides to Treat Cystic Fibrosis and Other IL-8 Dependent Disorders” (priority 2002, published 2014)", "origin": "cited, not measured here", "details": "octanol/water (20 mM TRIS-HCl, pH 7.4); cited from earlier work"}
{"substance": "Dihydro-digoxin", "values": [{"measurement": "P (partition coefficient in octanol/water system)", "result": "25.0 ± 4.7"}]}
